Binding of CDR-mutated scFvs to a peptide of the spike HR2 region

From the AlphaSeq antibody data of Li et al. 2023 (doi:10.1038/s41467-023-39022-2), copy in the FLAb collection.

Binding partner: SARS-CoV-2 spike HR2 peptide, sequence PDVDLGDISGINAS.

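Phage display of a naive human antibody library on the peptide gave the parent. The variants were designed computationally from a first round of random CDR variants and then made and measured. Group labels follow the data file (Ctrl: baseline library sampled from a position-specific scoring matrix, with some repeated check sequences; Rand: our label for a block that the file lists under HC and that is probably the random mutants of the ten best first-round binders; En: ensemble of fine-tuned language models; GP: Gaussian process model; GPLM: also part of the Gaussian process libraries; HC: hill climbing; Gen: genetic algorithm; Gibbs: Gibbs sampling; a sequence that several methods proposed may carry one label only). AlphaSeq pools MATa yeast showing the antibodies with MATalpha yeast showing the peptide. After mating in shaken culture at 30 °C for 16 h, diploids were selected and their barcode pairs sequenced. Each replicate has its own calibration line, from reference interactions of the BCL2 family. The assay was run in six technical replicates.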

Parent: Ab-14, a human scFv built as VH, a (GGGGS)3 linker, VL. Only the CDRs of the heavy chain vary.
VH: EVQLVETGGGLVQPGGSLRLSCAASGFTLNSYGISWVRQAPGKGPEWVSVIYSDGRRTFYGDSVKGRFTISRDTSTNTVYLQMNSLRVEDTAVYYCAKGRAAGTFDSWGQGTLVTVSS
VL: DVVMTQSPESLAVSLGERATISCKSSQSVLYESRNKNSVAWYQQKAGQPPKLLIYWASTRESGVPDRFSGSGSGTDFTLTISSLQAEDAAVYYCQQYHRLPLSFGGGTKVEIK

The parent's heavy chain CDRs are GFTLNSYGIS, VIYSDGRRTFYGDSVK, GRAAGTFDS; each variant's own CDRs replace them letter for letter.
Affinities are written as log10 Kd with Kd in nM; a lower number is a better binder.
Averages over replicates are reported, and they cover detected replicates only.
An entry "not detected" has no value in the source: the pair was not observed among the diploids in any replicate. This suggests poor binding but is not conclusive.
The authors' rule: three or more of the six replicates give a measured affinity, fewer mean a poor binder.
The parent sequence was in this pool as ten entries: three were never detected, three once, and four in most replicates, with averages from 0.34 to 2.37.
A sequence measured in both rounds can read differently, since the two assays cover different ranges.
Empty control strains, which show no peptide, gave a signal in 1% of pairings with all heavy chain designs; the median was 2.08 and 95% of these signals were weaker than 0.84. No background was subtracted. The control count says in how many pairings with the empty strains this scFv gave a signal.

| mean log10 Kd (nM) | detected | control signals | CDR-H1 | CDR-H2 | CDR-H3 | group |
|---|---|---|---|---|---|---|
| 0.39 | 6/6 | 0/18 | GFDLNEYGIS | VIYADGQRTAYADDVK | GNVAGTFDM | En_Gen |
| 1.66 | 1/6 | 1/18 | GFELNSYGIS | VIYADGRRTFYGDSVK | GRAAGTFCS | GP_Gibbs |
| not detected | 0/6 | 0/18 | GFDLGEYGIS | VIYADGRRKAYSDAVK | GINVIGKTV | En_Gibbs |
| 0.90 | 6/6 | 3/18 | GFFLNEYGIS | VIYSDGRRTFYGDSVK | GRTAGTFDS | GPLM_Gen |
| not detected | 0/6 | 0/18 | GFTLNSYGIQ | VIYSDGRRTFIGDSVK | GRAPLTFDS | Ctrl |
| -0.01 | 6/6 | 0/18 | GFDLNEYGIS | VIYADGVRTVYADSVK | GNNAGTFDV | En_Gen |
| 1.57 | 2/6 | 0/18 | GFTLNSYGIS | VIYSDGMRTFYGDSVK | GQAAGTFDL | GP_Gibbs |
| 1.85 | 1/6 | 1/18 | GFDLEEYGIS | VIYADGVRTSYVDQVK | GENGGAYYT | En_Gibbs |
| not detected | 0/6 | 0/18 | GFTLNSYGIS | VIASDGRRTQYGDNVK | GRAPGTFDS | Ctrl |
| 1.69 | 4/6 | 0/18 | GFWLNEYGIS | VIYSDGQRTFYGDSVK | GRTAGTFDS | GP_Gibbs |
| 1.80 | 5/6 | 0/18 | GFDLDEYGIS | VIYADGSRTAYSDSVK | GNVAGTFDV | En_Gen |
| 2.43 | 2/6 | 0/18 | GFTLNSYGIS | VIYNDGRRTFYEDSVK | GQLAGTFDS | Rand |
| 3.46 | 1/6 | 1/18 | GFTLNSYGIS | VIYSDGRRTFYGDSVK | GRAKAPAIS | Ctrl |
| 2.23 | 1/6 | 0/18 | GFTLNQYGIS | VIYTDGRRTFYSDSVK | GRAAGFFDS | Rand |
| 1.62 | 2/6 | 0/18 | GFTLNEYGIS | VIYSDGRRTFYGDSVK | GRTAGTFDF | GPLM_Gen |
| 0.81 | 6/6 | 1/18 | GFELNSYGIS | VIYSDGRRTFYIDEVK | GKTAGTFDS | GP_Gibbs |
| not detected | 0/6 | 0/18 | GFNLNSYGIS | VIYADGRRTFYGDSVK | GRAADTFDS | Ctrl |
| not detected | 0/6 | 0/18 | GFVLNDYGIS | VIYSDGRRTFYGWSVK | GRAAGTFDS | Ctrl |
| -0.41 | 6/6 | 0/18 | GFDLNSYGIS | VIYSDGMRTFYTDSVK | GRTAGTFDS | GP_Gibbs |
| -0.34 | 6/6 | 3/18 | GFDLNEYGIS | VIYADGKRTAYIDSVK | GNEAGTFDV | En_Gen |
| -0.49 | 6/6 | 0/18 | GFDLNEYGIS | VIYADGRRTAYTDSVK | GQLAGTFDS | En_HC |
| 1.12 | 6/6 | 0/18 | GFDLNEYGIS | VIYADGMRTFYADSVK | GQNAGTFDL | En_Gen |
| not detected | 0/6 | 0/18 | GFDLAEYGIS | VIYADGSRTAYNQNVK | GLKGDSYDI | En_Gibbs |
| -0.75 | 6/6 | 0/18 | GFDLNEYGIS | VIYADGMRSAYADSVK | GNVAGTFDI | En_Gen |
| -0.32 | 6/6 | 0/18 | GFDLNEYGIS | VIYADGRRTAYIDSVK | GETAGTFDV | En_Gen |
| 1.44 | 6/6 | 0/18 | GFSLNEYGIS | VIYSDGRRTFYCDAVK | GRTAGTFDS | GP_Gibbs |
| -0.64 | 6/6 | 0/18 | GFDLNEYGIS | VIYADGRRTAYADSVK | GTAAGTFDQ | En_HC |
| -0.59 | 6/6 | 1/18 | GFDLNEYGIS | VIYADGVRTFYVDSVK | GEVAGTFDS | En_HC |
| -0.46 | 6/6 | 0/18 | GFDLDEYGIS | VIYADGQRTAYVDSVK | GNVAGTFDV | En_Gen |
| 3.92 | 1/6 | 2/18 | GFDLGEYGIS | VIYADGSRSAYAKNVK | GGNVYKDAV | En_Gibbs |
| 0.61 | 4/6 | 0/18 | MFDLNSYGIS | VIYSDGRRTFYSDSVK | GEAAGTFDS | GP_Gen |
| 0.49 | 6/6 | 1/18 | GFDLNEYGIS | VIYADGMRTQYADSVK | GQNAGTFDV | En_Gen |
| 2.94 | 2/6 | 1/18 | GFPLNSYGIS | VIYSDGRRTFYTDSVK | GRASGTFDS | Ctrl |
| -0.04 | 6/6 | 0/18 | GFNLNSYGIS | VIYSDGRRTFYGDSVK | GREAGTFDT | GPLM_Gen |
| -0.10 | 6/6 | 1/18 | GFDLNEYGIS | VIYADGRRTAYTDSVK | GEVAGTFDQ | En_Gen |
| 0.90 | 6/6 | 0/18 | GFDINEYGIS | VMYADGSRVVYRDNVK | GFQGGTFDM | En_Gibbs |
| 0.92 | 6/6 | 0/18 | KFDLNKYGIS | VIYSDGRRTFYGDSVK | GRTAGTFDS | GP_Gen |
| not detected | 0/6 | 0/18 | GFDLNSYGIS | VIYSDGRRTFYGDSVK | GRAAGTFPK | Ctrl |
| 2.40 | 1/6 | 0/18 | GFDLQEYGIS | VIYADGARKSYTNSVK | GVVGATMDV | En_Gibbs |
| 0.21 | 6/6 | 0/18 | GFDLDEYGIS | VIYADGSRTAYADSVK | GENAGTFDM | En_Gen |
| not detected | 0/6 | 0/18 | GFTLNSYGIS | VIYADGRRTFYGDKVK | GLAAGTNKS | Rand |
| -0.48 | 6/6 | 0/18 | GFDLNEYGIS | VIYADGVRKAYADSVK | GENAGTFDM | En_Gen |
| 1.61 | 1/6 | 0/18 | EFTLNSYGIS | VIYSDGRRTFYSDSVK | GKAGGTFDS | GP_HC |
| not detected | 0/6 | 0/18 | MFNLNSYGIS | VIYSDGRRTFYGDSVK | TDAHQTFDS | Ctrl |
| 1.82 | 5/6 | 1/18 | GFWLNEYGIS | VIYSDGRRTFYADSVK | GQAAGTFDS | GPLM_Gen |
| 0.35 | 5/6 | 0/18 | GFNLNEYGIS | VIYADGRRSAYSDSVK | GEAAGTFDV | En_HC |
| not detected | 0/6 | 1/18 | GFTLNSYGIS | VIYSDGRRTAYSDSVK | GQAAGKFDS | GP_HC |
| 3.22 | 1/6 | 0/18 | GFTLNSYGIS | VIYSDGRRLQYGDSVK | GKNAGTFDS | Ctrl |
| 2.14 | 1/6 | 0/18 | GFGLDEYGIS | VIYADGMRSAYANSVK | GHHAGGIVW | En_Gibbs |
| -0.41 | 6/6 | 0/18 | GFDLNEYGIS | VIYADGRRTSYIDSVK | GNVAGTFDT | En_HC |
| -0.62 | 6/6 | 0/18 | GFDLDEYGIS | VIYADGQRTAYADDVK | GEVAGTFDV | En_Gen |
| 0.87 | 6/6 | 0/18 | GFDLNSYGIS | VIYSDGRRTFYVDSVK | GRAAGTFDV | GP_Gibbs |
| not detected | 0/6 | 0/18 | GFTLNSYGIS | VIYFDGRRTFYGDSVK | GRAAGTYDS | Ctrl |
| 0.02 | 6/6 | 0/18 | GFDLDEYGIS | VIYADGQRTYYADSVK | GENAGTFDL | En_Gen |
| -0.22 | 6/6 | 1/18 | GFELNQYGIS | VIYSDGRRTFYSDSVK | GRLAGTFDT | GP_HC |
| 0.67 | 6/6 | 0/18 | GFTLNEYGIS | VIYSDGRRTFYGDSVK | GRMAGTFDN | GP_HC |
| -0.45 | 6/6 | 0/18 | GFDLDEYGIS | VIYADGKRTAYADSVK | GNQAGTFDT | En_Gen |
| -0.94 | 6/6 | 1/18 | GFNLDEYGIS | VIYADGRRTFYSDSVK | GEVAGTFDV | En_HC |
| 1.05 | 6/6 | 0/18 | GFELNEYGIS | VIYSDGRRTFYGDSVK | GTAAGTFDS | GP_Gen |
| not detected | 0/6 | 0/18 | GFDLQEYGIS | VIYADGQRTKVTDNVK | GQVTGTAFV | En_Gibbs |
| 0.13 | 6/6 | 0/18 | GFTLNSYGIS | VIYSDGRRTFYADSVK | GTLAGTFDS | GP_HC |
| -0.54 | 6/6 | 1/18 | GFDLDEYGIS | VIYADGMRTAYSDSVK | GETAGTFDQ | En_Gen |
| -1.02 | 6/6 | 1/18 | GFDLNEYGIS | VIYADGMRKAYADSVK | GEVAGTFDQ | En_Gen |
| -0.62 | 6/6 | 0/18 | GFDLNEYGIS | VIYADGKRTAYIDSVK | GNVAGTFDL | En_Gen |
| -0.40 | 6/6 | 1/18 | GFDLDEYGIS | VIYADGRRTFYADSVK | GNVAGTFDI | En_HC |
| not detected | 0/6 | 1/18 | GVTLNDYGIS | VIYSDGRMTQYIDSVK | GRAAGTFDS | Rand |
| not detected | 0/6 | 0/18 | GFTLNSYGIS | VIYSDGRRTFYSDSVK | GRAAVTFDG | GP_HC |
| 1.70 | 5/6 | 1/18 | GFKLNSYGIS | VIYSDGRRTFYDDSVK | GKLAGTFDS | GP_HC |
| not detected | 0/6 | 0/18 | GFSLDEYGIS | VIYADGMRTQYTPNVK | GQTGFDYGL | En_Gibbs |
| 0.43 | 6/6 | 0/18 | GFDLNEYGIS | VIYADGQRTAYADSVK | GNVAGTFDT | En_Gen |
| 1.94 | 6/6 | 0/18 | GFELNSYGIS | VIYSDGRRTFYGDSVK | GRAAGTFDY | Ctrl |
| not detected | 0/6 | 0/18 | GFSLNSYGIS | VEYFDGRRTFYGDSVK | ERADGTFDP | Ctrl |
| 1.78 | 5/6 | 1/18 | GFTLNDYGIS | VIYADGRRTFYGDSVK | GRAAGTFKS | GP_HC |
| -0.24 | 6/6 | 0/18 | GFDLNEYGIS | VIYADGKRTAYADNVK | GQVAGTFDI | En_Gen |

Repeated from above, the 9 best binders with a signal in all replicates:

| CDR-H1 | CDR-H2 | CDR-H3 | group | mean log10 Kd (nM) | detected | control signals |
|---|---|---|---|---|---|---|
| GFDLNEYGIS | VIYADGMRKAYADSVK | GEVAGTFDQ | En_Gen | -1.02 | 6/6 | 1/18 |
| GFNLDEYGIS | VIYADGRRTFYSDSVK | GEVAGTFDV | En_HC | -0.94 | 6/6 | 1/18 |
| GFDLNEYGIS | VIYADGMRSAYADSVK | GNVAGTFDI | En_Gen | -0.75 | 6/6 | 0/18 |
| GFDLNEYGIS | VIYADGRRTAYADSVK | GTAAGTFDQ | En_HC | -0.64 | 6/6 | 0/18 |
| GFDLDEYGIS | VIYADGQRTAYADDVK | GEVAGTFDV | En_Gen | -0.62 | 6/6 | 0/18 |
| GFDLNEYGIS | VIYADGKRTAYIDSVK | GNVAGTFDL | En_Gen | -0.62 | 6/6 | 0/18 |
| GFDLNEYGIS | VIYADGVRTFYVDSVK | GEVAGTFDS | En_HC | -0.59 | 6/6 | 1/18 |
| GFDLDEYGIS | VIYADGMRTAYSDSVK | GETAGTFDQ | En_Gen | -0.54 | 6/6 | 1/18 |
| GFDLNEYGIS | VIYADGRRTAYTDSVK | GQLAGTFDS | En_HC | -0.49 | 6/6 | 0/18 |